Measured values from patent publication US10555932B2, “Method of restoring analgesic efficacy of alpha2-adrenoceptor agonists in neuropathic pain treatment” (KOREA INSTITUTE OF SCIENCE AND TECHNOLOGY, priority 2016, dated 2020).

Tests used:
[1] = test system: systolic blood pressure (SBP); details: mouse
Procedure: To evaluate the induction of low blood pressure, systolic blood pressure (SBP) was measured using a non-invasive computerized tail-cuff system as previously described in the art (PowerLab system, ADI Instrument Pry Ltd., Chain Hills, NSW, Australia). Briefly, animals were acclimated for 30 minutes in a quiet test room prior to obtaining cardiovascular measurements. At the end of the 1 hour period, the SBP was measured. This experiment was repeated 3 times and the mean value for each animal was recorded. […] All cardiovascular measurements were obtained between 1 pm to 3 pm in order to avoid changes due to normal circadian rhythms.
(§1) Test results are expressed as means±SEM unless otherwise stated. Data analysis and statistical comparisons were performed using GraphPad Prism version 5.0 (GraphPad Software, San Diego, Calif.). Comparison between two groups was made using the Student's t-test. For multiple comparisons, ANOVA followed by post hoc Tukey test was performed. Differences with P<0.05 were considered significant.

motion performance = details: mouse
Procedure: To evaluate degradation of motion performance capability as one of side effects caused by the low blood pressure, rotarod test was performed on each of the mice administered with clonidine or the RGS4 inhibitor. […] All mice were tested 24 hours before the actual rotarod test, and mice that were able to remain on the rod for at least 120 seconds were included in the experiment. 30 minutes after clonidine injection, each animal was subsequently tested on the rotarod over 2-minutes period and their performance time on the bar (in seconds) was measured. The test was repeated 3 times and the mean value for each animal was recorded.
as §1

[2] = human, cited from earlier work
[3] = hydrochloride, about 0.2 μg/kg/hour to about 0.7 μg/kg/hour, within 24 hours; cited from earlier work

SMILES: Cc1cccc([C@H](C)c2c[nH]cn2)c1C.Cl [dexmedetomidine, 4-[(1S)-1-(2,3-dimethylphenyl)ethyl]-1H-imidazole hydrochloride]
- low blood pressure side effect ([1]; 1 nmol in combination with the RGS4 inhibitor (FIG. 7)): no side effects
- blood pressure (SBP) change ([1]; dexmedetomidine 3 nmol alone (effective dose), 30 minutes after treatment (FIG. 7)): significant symptoms of low blood pressure
- decreased motor performance side effect (motion performance; 1 nmol in combination with the RGS4 inhibitor (FIG. 8)): no side effects
- motor performance (rotarod) (motion performance; dexmedetomidine 3 nmol alone (FIG. 8)): rapidly decreased motor performance
- side effects ([2]; 0.5 μg/kg intravenously in combination with lidocaine): no statistically significant side effects
- respiratory paralysis ([2]; about 5 μg/kg to about 10 μg/kg intravenously): no incidental respiratory paralysis
- patients with low blood pressure [3]: about 25%
